From US8759366B2, “Aminopyrimidines as SYK inhibitors” (Merck Sharp & Dohme Corp., priority 2009, dated 2014)

Assays:
[1] = biological target: rhSYK (Homo sapiens (Human), UniProt P43405); conditions: tested form: TFA
[2] = biological target: recombinant human SYK (GST-hSYK fusion protein) (Homo sapiens (Human), UniProt P43405)

| IC50 [1] | IC50 [2] | SMILES |
| --- | --- | --- |
| < 100 nM |  | CC(=O)NS(=O)(=O)c1ccc(C(C)(O)c2ncc(-c3cc(C)cc(Nc4nccc(C(F)(F)F)n4)c3)s2)cc1 (stereo not drawn) |
|  | < 100 nM | CNC(=O)N1CCCC(O)(c2ncc(-c3cc(C)cc(Nc4nccc(C(F)(F)F)n4)c3)s2)CC1 (single isomer, unassigned) |
|  | 1000 to 10000 nM | COc1nc(Nc2cc(C)cc(-c3cnc(C4(O)CCCN(C(=O)OC(C)(C)C)CC4)s3)c2)ncc1Cl (single isomer, unassigned) |
